From patent publication US20040248111A1

Target: human thrombin (Homo sapiens, UniProt P00734)
Assay: thrombin competition assay (determination of the inhibitor constant Ki)
Conditions: 20° C., pH 7.4, fluorogenic substrate Tos-GPR-AMC 20 μM, free ligand in solution
Description: The inhibitory properties of these substances were then analysed in a thrombin competition assay (determination of the inhibitor constant Ki).
The thrombin activity was determined at 20° C. and pH 7.4 using the fluorogenic substrate Tos-GPR-AMC (Bachem, 11365, λexc. =370 nm, λem. =450 nm). The reaction mixture contains 20 μM substrate, 0.1-100 μM inhibitor and 100 μM human thrombin in a total volume of 200 μl HBS (10 mM Hepes, 150 mM NaCl, 0.005% Tween 20). After 5 minutes of incubating the enzyme in advance with the inhibitor, the reaction is started by adding substrate and the fluorescence intensity is measured for 10 minutes in intervals of 1 minute. With competitive inhibition, the K value is calculated as follows:
v0=initial speed of the reaction
vi=initial speed of the reaction in the presence of the inhibitor
l=inhibitor concentration

CCN(CC)C(=O)C1CCCN(C(=O)[C@H](Cc2ccc(NC(=N)N)cc2)NS(=O)(=O)c2cccc3ccccc23)C1 (stereo partly drawn)
Ki: 6000 nM

CC(C)(C)c1ccc(S(=O)(=O)N[C@@H](Cc2ccc(NC(=N)N)cc2)C(=O)N2CCCCC2)cc1
Ki: 600 nM

N=C(N)Nc1ccc(C[C@H](NS(=O)(=O)c2cccc3ccccc23)C(=O)N2CCCCC2)cc1
Ki: 1000 nM
